Measured values taken from patent publication US6130053A, “Method for selecting compounds for inhibition of neoplastic lesions” (priority 1999, dated 2000).

Tested on: SW-480 colon adenocarcinoma cells
Test: Apoptosis inducing activity, fold induction (fold stimulation, DNA fragmentation ELISA)
Details: neoplastic cells

Compound: CCCOc1ccccc1-c1nc2nn[nH]c2c(=O)[nH]1 [Zaprinast]
- apoptosis-inducing or growth-inhibiting properties: does not have significant apoptosis-inducing or growth-inhibiting properties
